Laboratory results as given in patent US6602856B1, “Antagonists of alpha-melanocyte stimulating hormone and methods based thereon” (priority 1995, dated 2003).
“Also recorded” adds a separate entry of the source.

Amino acid sequences for entries named in this document (tags omitted). A change or cut given only in a name is not applied to a line headed by its entry.
UniProt Q01726: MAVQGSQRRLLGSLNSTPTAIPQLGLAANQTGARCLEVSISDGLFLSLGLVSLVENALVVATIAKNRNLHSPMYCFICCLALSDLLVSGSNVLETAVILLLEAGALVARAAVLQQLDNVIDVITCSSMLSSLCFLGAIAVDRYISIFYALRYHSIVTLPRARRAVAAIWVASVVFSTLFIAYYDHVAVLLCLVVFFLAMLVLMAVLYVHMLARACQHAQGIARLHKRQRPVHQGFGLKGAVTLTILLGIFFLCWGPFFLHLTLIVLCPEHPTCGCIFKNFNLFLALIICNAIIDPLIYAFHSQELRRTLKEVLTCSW

Target: T1, human melanoma MSH receptor (Homo sapiens, UniProt Q01726)
T1 construct: expressed in transfected cells; host or cells: Xenopus fibroblasts, electroporated with pcDNAI/NEO carrying the receptor cDNA
Assay: cAMP in Xenopus fibroblasts transfected with human melanoma MSH receptor
Assay type: cell-based
Details: dWRL 10 μM; 5 nM α-MSH; relative to MSH alone
Protocol: Control=no additional drugs. MSH=5 nM α-MSH. dWRL concentration was 10 μM. Forskolin=100 μM forskolin (7β-desacetyl-7β-[g-(N-methylpiperazino)-butyryl; from Calbiochem).
Xenopus fibroblasts (Daniolos, et al., 1990, Pigment Cell Res 3, 38-43) were transfected with “Vector alone” (pcDNAI/NEO, Invitrogen) or with “HMelMSHR” (pcDNAI/NEO containing a human melanoma MSH receptor insert (Mountjoy et al., 1992, Science 257, 1248-1251; kind gift from Roger Cone). Control=no additional drugs. MSH=5 nM μM α-MSH. The dWRL concentration was 10 μM. Forskolin=100 μM forskolin (7β-desacetyl-7β-[g-(N-methylpiperazino)-butyryl; from Calbiochem).
Transfections were performed by electroporation (≈5×10^−1 cells per 400 μL in 70% phosphate-buffered saline, pH 7.0, plus 10 μg of test cDNA) using 0.2 cm cuvettes in a BTX ECM-600 (475 V, 720 ohm, and 400 μF). 48 hr after transfection, confluent cells, plated in 12-well tissue culture plates (Falcon), were rinsed for 1 hr with 70% L-15 medium (Sigma) containing 0.5% bovine serum albumin (BSA) (Sigma), and again for 5 min with added 0.5% bovine serum albumin (BSA) (Sigma), and again for 5 min with added 0.5 mM IBMX (3-isobutyl-1-methlylxanthine; from Aldrich). Test drugs were then added with IBMX present for 45 min and intracellular cAMP extracted with 1 ml of 60% ethanol per well. cAMP from cAMP-binding protein (21; Kit from Amersham). […]

## CC(C)C[C@H](NC(=O)[C@H](CCCNC(=N)N)NC(=O)[C@H](N)Cc1c[nH]c2ccccc12)C(N)=O [A1, D-Trp-Arg-Leu-NH2]
  inhibition of cAMP formation in hMel MSHR transfected cells: functional antagonism; also recorded: significantly inhibits
